From patent US20250092111A1, “POTENT AND STABLE POLYPEPTIDE ANALOGUES VIA SERINE/THREONINE LIGATION” (UNIVERSITY OF WASHINGTON, priority 2022, published 2025) come the findings set out here.

The conditions of this series: RP-HPLC, up to 48 h.

For the substance Semaglutide, the “degradation in human serum” value was “almost no sign of degradation up to 48 h”.
